In PMC9206510, “4′-Fluorouridine is an oral antiviral that blocks respiratory syncytial virus and SARS-CoV-2 replication” (Science (New York, N.y.), 2021):
pEC50: −log10 of the molar value.

Assays:
Type in all cases: cell-based, respiratory syncytial virus
[1] = test system: recRSV-A2line19F-[FireSMASh]; conditions: 10 μM 4′-FlU; not reversed by purines
[2] = test system: recRSV-A2line19F-[FireSMASh]; assay: recRSV-A2line19F-[FireSMASh] dose response inhibition on primary HAE cells
[3] = test system: recRSV-A2line19F-[FireSMASh]; assay: microbe, parasite or virus in culture

`O=c1ccn([C@@H]2O[C@](F)(CO)[C@@H](O)[C@H]2O)c(=O)[nH]1` [4′-FlU, 4′-fluorouridine] was tested, and the “antiviral effect on addition of excess exogenous pyrimidines (cytidine and uridine)” value [1] was “dose-dependently reversed”, the “selectivity index (SI = EC50/CC50)” value ([2]; primary HAE cells, RSV) was no less than 1877 and the “increased anti-RSV potency relative to that on HEp-2 cells” value ([2]; primary HAE from two donors) was no less than 17 fold. The “antiviral efficacy by confocal microscopy” value [3] was “near-sterilizing antiviral efficacy” and the pEC50 ([3]; human respiratory syncytial virus, read-out: EC50, apical virus shedding) was 7.26.
